The source of these data is article PMC5799093, “Proceedings of Réanimation 2018, the French Intensive Care Society International Congress” (Annals of Intensive Care, 2018).

This experiment has as its system septic shock patients. The experiment in a line: Randomized albumin vs saline volume expansion in septic shock; skin endothelial response to acetylcholine iontophoresis. The format is in vivo. How it is done: Patients and methods: We performed a prospective randomized monocentric study in an 18-bed medical intensive care unit. All patients with septic shock who required fluid administration were included between H6 and H24 after vasopressor starting. Patients were randomized to receive either 500 ml of saline solution 0.9% or 100 ml of albumin 20%. Norepinephrine dose was not modified 1 h before and during the procedure. Endothelium-dependant vasodilatation in the skin circulation was assessed by iontophoresis of acetylcholine before and after fluid administration. The improvement of skin blood flow in response to acetylcholine after fluid administration was compared between groups. For each patient, age, sex, SAPS II, site of infection, global hemodynamic parameters and clinical microcirculatory parameters were recorded. Results are expressed as mean ± SD. Qualitative data were compared using Chi-2 or Fisher’s exact test while quantitative data comparisons used Student t Test or Mann–Whitney as appropriate.

On to Human serum albumin, for which the “increase of systolic arterial pressure after volume expansion” value (100 ml albumin 20% (n = 10) or 500 ml saline 0.9% (n = 12)) is reported as 7%. Also, under “before vs after fluid infusion, 100 ml albumin 20% or 500 ml saline 0.9%”, the “improvement of endothelial response after acetylcholine challenge” value turned out to be 196%.
